Only a part is listed here, and it is no random draw. Some results for these compounds are left out of this collection, so the calls shown say nothing about other tests. The source made the active and inactive calls.
Assay: mitochondrial permeability transition pore inhibitors, primary screen, biochemical, isolated mouse mitochondria, absorbance (AID 602449);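 note: 0% = DMSO wells given calcium and 100% = 1 mM EGTA wells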
Conditions: Ca2+ swelling absorbance, 30 min, at 10 µM, hits give high values

Structure (SMILES)	inhibition
Cc1ccccc1C(=O)NCC1(N2CCCCC2)CCCCC1	inactive: 1.4%
CN(C)C1CCCC1OC(=O)C(O)(c1ccccc1)c1ccccc1 (stereo unspecified)	inactive: -1.8%
CN(C)c1ccc(C(=O)NCC2(N(C)C)CCCCC2)cc1	inactive: -0.5%
C=CCN1CCN(CCOC(=O)C(O)(c2ccccc2)c2ccccc2)CC1	inactive: -1.4%
O=C(NCC1(N2CCCCC2)CCCCC1)c1cc(F)c(F)cc1Cl	inactive: 1.9%
Cc1cc(C(=O)NCC2(N3CCCCC3)CCCCC2)ccc1[N+](=O)[O-]	inactive: -0.8%
CCN1CCCC(OC(=O)C2(O)c3ccccc3C=Cc3ccccc32)C1 (stereo unspecified)	inactive: 0.5%
O=C(NCC1(N2CCCCC2)CCCCC1)c1cccc(Br)c1	inactive: -0.5%
COc1ccc(C(=O)NCC2(N(C)C)CCCCC2)cc1	inactive: -1.3%
O=C(NCC1(N2CCCCC2)CCCCC1)c1cc([N+](=O)[O-])ccc1Cl	inactive: -0.9%
CN1[C@@H]2CC[C@H]1CC(OC(=O)C(O)(c1ccccc1)c1ccccc1)C2 (stereo partly specified)	inactive: -0.8%
CC(C)N1C(=O)CC2(CCN(CCOC(=O)C(O)(c3ccccc3)c3ccccc3)CC2)C1=O	inactive: -0.3%
CCN(CC)CC(C)C(C)OC(=O)C(O)(c1ccccc1)c1ccccc1 (stereo unspecified)	inactive: 0.1%
COc1cc(SC)ccc1C(=O)NCC1(N(C)C)CCCCC1	inactive: 0%
Cc1ccc(C(=O)NCC2(N3CCCCC3)CCCCC2)cc1	inactive: -0.6%
O=C(OC1CN2CCC1CC2)C(CO)(c1ccccc1)c1ccccc1 (stereo unspecified)	inactive: -0.7%
COc1ccc(Br)c(C(=O)NCC2(N3CCCCC3)CCCCC2)c1	inactive: 0.7%
C=C(C)C#CC(O)(C(=O)OC1CCN(C)CC1)c1ccccc1 (stereo unspecified)	inactive: -1.5%
CN(C)c1cccc(C(=O)NCC2(N(C)C)CCCCC2)c1	inactive: -1.2%
CC(C)Oc1ccc(C(=O)NCC2(N(C)C)CCCCC2)cc1	inactive: 0.6%
O=C(OCCN1CCCC1)C(O)(c1ccccc1)c1ccccc1	inactive: 0.1%
CN(C)C1(CNC(=O)c2ccc(Br)cc2)CCCCC1	inactive: -0.4%
COc1cc(C(=O)NCC2(N(C)C)CCCCC2)c([N+](=O)[O-])cc1OC	inactive: -1.2%
COc1cccc(C(=O)NCC2(N3CCCCC3)CCCCC2)c1	inactive: -0.7%
COc1ccc(Cl)cc1C(=O)NCC1(N(C)C)CCCCC1	inactive: -1.2%
O=C(NCC1(N2CCCCC2)CCCCC1)c1cccc(Cl)c1	inactive: -0.1%
